From publication PMC8131219 (Chemical research in toxicology, 2020)

The chains behind the UniProt entries cited, without tags or fusion partners.
UniProt Q05940, whole entry: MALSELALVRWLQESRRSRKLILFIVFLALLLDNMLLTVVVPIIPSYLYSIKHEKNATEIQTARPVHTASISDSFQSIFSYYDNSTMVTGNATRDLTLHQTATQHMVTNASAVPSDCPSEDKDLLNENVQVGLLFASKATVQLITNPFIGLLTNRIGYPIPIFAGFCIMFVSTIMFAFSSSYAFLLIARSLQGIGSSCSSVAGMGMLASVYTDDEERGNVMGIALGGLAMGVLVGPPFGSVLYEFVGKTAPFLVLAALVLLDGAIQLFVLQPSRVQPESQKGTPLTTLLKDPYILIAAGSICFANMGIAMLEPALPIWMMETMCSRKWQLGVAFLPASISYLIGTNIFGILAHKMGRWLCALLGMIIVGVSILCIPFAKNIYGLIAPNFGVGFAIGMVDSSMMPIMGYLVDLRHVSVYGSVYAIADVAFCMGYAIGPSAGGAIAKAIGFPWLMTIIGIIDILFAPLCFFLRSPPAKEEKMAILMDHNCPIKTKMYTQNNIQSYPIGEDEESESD

Target: human VMAT2 (Homo sapiens, UniProt Q05940)
Type: cell-based

`COC(=O)[C@H]1[C@H]2C[C@@H]3c4[nH]c5cc(OC)ccc5c4CCN3C[C@H]2C[C@@H](OC(=O)c2cc(OC)c(OC)c(OC)c2)[C@@H]1OC` [reserpine] was tested, and the “Concentration showing essentially complete / total inhibition of VMAT2” value was 0.1 µM.
